Laboratory results reported in publication PMC11859636, “Design, Synthesis, and Mechanistic Anticancer Evaluation of New Pyrimidine-Tethered Compounds” (Pharmaceuticals, 2025).

Test system: Jurkat cells
Assay: MTT assay for cytotoxicity, Jurkat cells
Assay type: cell-based, human
Conditions: IC50 for PBMC/IC50 for Jurkat cell line
Procedure: Dulbecco’s modified Eagle’s medium (DMEM) (Wako Pure Chemical Industries, Osaka, Japan) containing 10% fetal bovine serum (FBS) (Equitech-Bio, Kerrville, TX, USA) was used for the culture of A549 and MCF-7 human cancer cells, while RPMI 1640 (Wako Pure Chemical Industries) containing 10% FBS was used for the culture of Jurkat cells, derived from human leukemia. On the other hand, PBMCs (Precision Bioservices, Frederick, MD, USA) were incubated in RPMI 1640 supplemented with 10% human serum AB (HS) (Gemini, Woodland, CA, USA). All media also incorporated 89 μg/mL of streptomycin (Meiji Seika Pharma, Tokyo, Japan), and cells were maintained at 37 °C in a 95% air and 5% CO2 humidified chamber. The microtiter tissue culture plates (24-well and 96-well) (Iwaki, Asahi Glass Co., Chiba, Japan) were used for cancer cells (4 × 10^4 cells/mL) and PBMCs (5 × 10^5 cells/mL), respectively. Prior to drug treatment, all of these cells were incubated for 72 h. The optimal cell density for cytotoxicity testing was established in preliminary experiments. […]
The cellular reduction in MTT (Dojindo Molecular Technologies, Kumamoto, Japan) was measured as described in the literature with minor modifications. […] Absorbance was measured at 570 nm using an Infinitive M1000 microplate spectrophotometer (Tecan, Groding, Austria). […]

CS(=O)(=O)CCNCc1ccc(-c2ccc3ncnc(Nc4ccc(OCc5cccc(F)c5)c(Cl)c4)c3c2)o1 [Lapatinib]
SI (Selectivity Index): 8.89
